From BindingDB's records for 23453838

What was measured:
Acetylcholinesterase [1] = molecular target: Acetylcholinesterase (Electrophorus electricus, UniProt O42275); test: ASSAY_NAME: ChEMBL_954155 (CHEMBL2351670) […]
Acetylcholinesterase [2] = molecular target: Acetylcholinesterase (Rattus norvegicus, UniProt P37136); test: ASSAY_NAME: ChEMBL_954152 (CHEMBL2351425) […]

With `CCOP(=O)(OCC)Oc1ccc([N+](=O)[O-])cc1` the kon (M-1-s-1) (Acetylcholinesterase [1]) was 333 M⁻¹ s⁻¹ and the kon (M-1-s-1) (Acetylcholinesterase [2]) was 267 M⁻¹ s⁻¹.
